From patent EP4549446A1 (priority 2023, dated 2025)

Assays:
[1] = tested on: AML, ALL, and MM cell lines; test: Cell viability by MTT assay in AML, ALL and MM cell lines; settings: MTT assay and flow cytometry; 0-100 µM; 18 h; HL60, KG1a, U937, MV-4-11, TMLCL, Jurkat, MM1.S, OPM-2, U266; compared to untreated control cells
[2] = tested on: AML cell lines; test: Cell viability by flow cytometry in AML cell lines and donor cell subpopulations; type: cell-based, human; settings: HL60, U937, CD45+, CD34+, B lymphocytes and T lymphocytes, 0-100 µM, 18 h

SMILES: CCOP(=O)(NCCCCN=C=S)OCC
- viability of AML, ALL, and MM cell lines [1]: significantly reduced the viability

SMILES: CCOP(=O)(NCCCCCCN=C=S)OCC
- proapoptotic effect on AML cell lines [2]: partially selective proapoptotic effect
- viability of AML, ALL, and MM cell lines [1]: significantly reduced the viability

SMILES: CCOP(=O)(NCCCCCCCCN=C=S)OCC
- proapoptotic effect on AML cell lines [2]: partially selective proapoptotic effect
- viability of AML, ALL, and MM cell lines [1]: significantly reduced the viability
